# Earlier results, collected in paper PMC4603705, “A bioinspired peptide scaffold with high antibiotic activity and low in vivo toxicity” (Scientific Reports, 2015).
# Conditions: metabolic degradation; no reference given; cited from earlier work
substance,measurement,value
vapreotide,half-lives,2 to 3 h
